Columns and labels:
human 11β-HSD1 = human 11β-HSD1 (Homo sapiens, UniProt P28845); assay: scintillation proximity assay (SPA), microsomes of HEK-293 cells transfected with human 11β-HSD1; conditions: read-out: Human (IC50) 11β-HSD1; Table 1, initial enzymatic assay; averages of two determinations
mouse 11β-HSD1 = mouse 11β-HSD1 (Mus musculus, UniProt P50172); assay: scintillation proximity assay (SPA), microsomes of HEK-293 cells transfected with mouse 11β-HSD1; conditions: read-out: Mouse (IC50) 11β-HSD1; Table 1, initial enzymatic assay; averages of two determinations

By UniProt entry, the sequences of proteins in these tests, tags left out.
UniProt P28845, whole entry: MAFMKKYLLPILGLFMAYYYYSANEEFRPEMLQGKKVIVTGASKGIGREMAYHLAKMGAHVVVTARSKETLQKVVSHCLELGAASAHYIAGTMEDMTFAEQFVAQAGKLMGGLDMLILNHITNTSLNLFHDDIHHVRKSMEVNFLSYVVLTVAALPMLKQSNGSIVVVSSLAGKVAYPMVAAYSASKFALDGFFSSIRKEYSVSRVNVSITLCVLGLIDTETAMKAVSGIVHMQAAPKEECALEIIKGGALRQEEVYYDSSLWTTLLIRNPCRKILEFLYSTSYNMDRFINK
UniProt P50172, whole entry: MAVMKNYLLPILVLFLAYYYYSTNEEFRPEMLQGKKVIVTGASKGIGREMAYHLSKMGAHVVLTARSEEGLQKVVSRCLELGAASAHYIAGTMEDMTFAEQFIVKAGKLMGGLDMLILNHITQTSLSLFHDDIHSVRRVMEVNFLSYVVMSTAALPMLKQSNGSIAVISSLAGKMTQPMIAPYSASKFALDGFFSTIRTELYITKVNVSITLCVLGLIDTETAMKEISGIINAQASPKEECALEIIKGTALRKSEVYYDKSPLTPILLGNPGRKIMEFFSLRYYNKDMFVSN

IC50 (human 11β-HSD1) | IC50 (mouse 11β-HSD1) | SMILES
168 nM | 113 nM | Cc1coc2c1C(=O)C(=O)c1c-2ccc2c1CCC[C@]2(C)CO
1000 nM | 400 nM | Cc1coc2c1C(=O)C(=O)c1c-2ccc2c1CCCC2(C)O (stereo not shown)
2200 nM | 1700 nM | CC(=O)C[C@]1(O)C(=O)C2=C(OC[C@@H]2C)c2ccc3c(C)cccc3c21
206 nM | 392 nM | Cc1cccc2c3c(ccc12)C1=C(C(=O)C3=O)[C@@H](C)CO1
12200 nM | 4000 nM | Cc1cccc2c3c(ccc12)C(=O)C([C@@H](C)CO)=C(O)C3=O

Reference: paper PMC9492458, “Development and structure–activity relationships of tanshinones as selective 11β-hydroxysteroid dehydrogenase 1 inhibitors” (Natural Products and Bioprospecting, 2022)
